Test results: patent publication US20240228542A1, “LYTIC DOMAIN FUSION CONSTRUCTS, CHECKPOINT INHIBITORS, AND METHODS OF MAKING AND USING SAME” (A28 Therapeutics Inc., priority 2020, published 2024)

How the values were obtained:
[1] = system: MDA-MB-435S xenograft; test: MDA-MB-435S xenograft, multiple dose regimen; format: in vivo, Nu/Nu mice; conditions: entire study period
Protocol: In order to determine the minimal effective dose necessary to reduce MDA-MB-435S xenograft weights in a multiple dose regimen, Nu/Nu female mice, outbred strain, age 8 weeks (Charles River), were injected (s.c.) into the interscapular region with a MDA-MB-435S (passage # 253)/Matrigel suspension (2×10^6 cells/mouse) as previously described above. Phor 18-LHRH (338613) (ID: 338613 lot #P080401) (0.002, and 0.2 mg/kg) were reconstituted in USP saline prior to dosing. The doses were given as a single bolus intravenous injection via lateral tail vein on days 15, 16, 17, 20, 21, 22, 23, 27, 28, 29, 30, 33, 34, 35, 36, 37, 38, 40, 41, 42 after tumor cell inoculation. Saline injections served as control groups.
Each treatment group consisted of 16 mice. During the entire study tumor volumes were recorded twice weekly. Final necropsy was conducted on day 45 after tumor cell injection. […] due to occlusion of the tail vein in most mice. At study endpoint body weight, tumor weights were determined and fixed in phosphate buffered 10% formalin.

[2] = system: human RBC; test: Acute hemolytic activity on human red blood cells; format: cell-based; conditions: for HA50 (hemolytic activity): 0.5% human RBC, 2 h
Protocol: Hemolytic activity was determined in 96 well plates using a serial dilution of peptides exposed to 0.5% human RBC. Controls were saline (no RBC death) or 0.1% Triton X 100 (100% RBC lysis). The peptide concentrations ranged from 0 to 100 μm. Incubations were conducted for 2 h.

[3] = system: MDA-MB-435S.luc xenograft; test: MDA-MB-435S.luc xenograft, LHRH fusion constructs; set-up: species or system Nu/Nu mice; conditions: mouse, in vivo
Protocol: For LHRH fusion constructs, the mouse xenograft model for breast cancer was used. In brief. Nu/Nu female mice, outbred strain, age 5 weeks (Charles River) were injected subcutaneously with a MDA-MB-435S.luc/Matrigel suspension (1×10^6 cells). Treatment was started on day 21 after tumor cell injection and continued on day 26 and 29. The doses for weekly fusion construct injections were 2, 0.2 and 0.02 mg/kg body weight, given as a bolus single injection. All mice were necropsied 34 days after tumor cell injection-baseline values for tumor weights were obtained by sacrificing 8 mice at treatment start. […] Tumor weights were recorded at necropsy, part of the tumors were frozen at −80 ° C. for luciferase assay determination.
Characteristics of tumors at necropsy are summarized in FIG. 10; (A) tumor weight, (B) changes of tumor weights compared to baseline, (C) total number of live tumor cells, (D) changes of total live tumor cells compared to baseline, and (E) bodyweights at baseline and necropsy. Viability of tumor cells was determined at the end of the study when tumors were measured for luciferase activity. Treatment efficacy was calculated as difference between measurements at the beginning of treatment compared to the measurement at the end of study (FIG. 10B and 10D).

[4] = system: OVCAR-3 xenograft; test: OVCAR-3 ovarian cancer xenograft; format: in vivo, Nu/Nu mice; conditions: 2 mg/kg dose; procedural and not related to treatment
Protocol: The purpose of this xenograft study was to test Phor 18-LHRH (338613) in a ovarian cancer model, to determine if Phor18-LHRH (338613) is effective in vivo in multi-drug resistant, slow growing tumor models as single weekly injections. In brief, Nu/Nu female mice, inbred strain, age 5 weeks (Harlan-Sprague Dawley) were injected subcutaneously with a NIH:OVCAR-3 cells/Matrigel suspension (4.6×10^6 cells/mouse). Treatment was started on day 33 after tumor cell injection when the tumors were established and continued on days 41 and 47. […]
A group of 9 tumor bearing mice was sacrificed on day 33 and served as baseline group. […] Tumor volumes and bodyweights were recorded twice weekly during the study, as well as overall veterinarian examination of mice was conducted.
Primary tumors, liver, kidney, pancreas, heart, lung, and spleen were collected, fixed in formalin and prepared for histological evaluation. Tumor weights were measured at necropsy, part of the tumors were frozen at −80° C. for LH/CG and LHRH receptor assay determination.
As a biomarker for drug activity, CA 125 was determined in serum, collected from each individual mouse at necropsy using a Enzyme Linked Immunoassay for quantitative determination of ovarian cancer antigen CA125 (Assay kit Genway, Biotech, Inc. San Diego, CA, Catalog #40-052-115009, #BC-1013 according to the manufacturer). […]

[5] = system: EMT-6; test: Cytotoxicity in EMT-6 murine breast cancer cells (CellTiter Glo); format: cell-based
Protocol: Exponentially growing murine cancer cell lines (EMT-6; a triple negative murine breast cancer cell line, passage 5) were obtained from Charles River, Wilmington MA and propagated from a frozen stock in Eagle's Minimum Essential Medium (EMEM) supplemented with 10% fetal bovine serum and 2 mM glutamine. 100 units/mL penicillin G sodium, 100 μg/mL streptomycin sulfate. 0.1 mM non-essential amino acids, and 25 μg/mL gentamicin. Cell cultures were maintained in tissue culture flasks in a humidified incubator at 37° C., in an atmosphere of 5% CO2 and 95% air. The cells were released using cell dissociation buffer and were seeded at a density of 2,000 cells/well into opaque 96 well plates and incubated in complete culture media for 24 hours.
Treatment was initiated by adding Phor18-LHRH (APC 338613, Lot #W01107C1) or
unconjugated Phor18 (APC 338983, SY09076C) at concentrations of 0.02, 0.06, 0.2, 0.6, 1.85, 5.5, 16.6, 50 and 100 μm in quadruplicates on two different plates (N=8). Controls were treated with USP saline or 0.1% TritonX-100™ as reference for 0 and 100% cell death, respectively. Cell viability was measured after 4 and 8 h of incubation in a cell viability assay (Promega, CellTiter Glo™, Promega # G7572, lot #326282). The in vitro toxicities as ICso values were determined using the GraphPad Prism version 5.00 for Windows, GraphPad Software, San Diego California USA.

[6] = Maximum tolerated dose (MTD) and safety margin; format: in vivo; conditions: MTD in comparison with anti-tumor effective dose
Protocol: The fusion conjugates have a high safety margin considering parameters such as hemolytic activity, maximum tolerated dose (MTD) (up to 16-25 mg/kg) in comparison with the anti-tumor effective dose (0.02 or 0.01 mg/kg). The safety margin for Phor21-βCG-ala is 16 whereas a value of 800 can be reached for Phor18-βCG-ala and Phor 18-LHRH. In comparison the safety margin for Phor 18-Lupron is only 8.

[7] = system: murine ovarian cancer cells; test: EP-100 cytotoxicity and LHRH-R specificity in murine ovarian cancer cells; format: cell-based; conditions: ID8 and IG10 cells, FIGS. 15D and 15E
Excerpt: To identify the direct effects of EP-100 on cancer cells, murine ovarian cancer cell lines were used for in vitro experiments. […] The level of expression of LHRH-R in murine ovarian cancer cells using RT-PCR and Western blot analysis. […] Indeed, LHRH-R was expressed mainly on the membrane of cancer cells (FIGS. 14D and 14E). Human SKOV3ipl ovarian cancer cells and immortalized murine 3T3 fibroblasts were used as negative controls.
To determine whether the antitumor EP-100 efficacy was specific to LHRH-R expression, we silenced LHRH-R using siRNA (FIG. 15A). […].

Sequence | bodyweights [1] | HA50 (hemolytic activity) ([2]; listed as 338613) [µM] | Hemolytic Activity [μM] (HA50) ([2]; Table 4 summary) [µM] | elevated potassium levels compared to saline controls [3] [fold] | death on injection [4] | IC50 ([5]; EMT-6, 4 h) [µM] | IC50 ([5]; EMT-6, 8 h) [µM] | safety margin [6] | HA50 (hemolytic activity) [2] | HA50 (hemolytic activity) ([2]; listed as 338983) | IC50 (cytotoxicity) ([5]; EMT-6, 4 h) | cytotoxic effect [7]
KFAKFAKKFAKFAKKFAKQHWSYGLRPG [Phor18-LHRH] | not affected by treatment | 297.9 ± 35 | 297 | 1.5 | One mouse died during the first injection | 5.8 ± 0.2 | 5.7 ± 0.1 | 800 |  |  |  | 
KFAKFAKKFAKFAKKFAK [Phor18, reference compound] |  |  |  |  |  |  | 55.8 ± 1.6 |  | did not show any hemolytic activity | Not lytic | Not toxic | did not have cytotoxic effects
